# Hits are enriched below; roughly 1.7% of the tested compounds scored in any of these assays.
# UUG fidelity: modulators of start codon recognition fidelity in yeast. S. cerevisiae UUG-firefly luciferase reporter, luminescence/redox ratio. activity score, % at 18.7 µM. 0.13% of 350,000 active. AID 602363;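 active = replicate mean at a twofold rise or more, about +100% in these data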;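 also: firefly luciferase made from a UUG start codon reports start codon fidelity; reporter light over untreated wells divided by growth signal over untreated wells; some hits fall short of that in this replicate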
# CAL PDZ FP-1: CAL PDZ peptide-binding inhibitors, primary screen, biochemical, fluorescence polarization, Cer-tagged CAL PDZ, HTS; hit rate 0.02% among 330,000; purified CAL PDZ, TMR-peptide fluorescence polarization, 1 h; inhibition, % at 20 µM; Golgi-associated PDZ and coiled-coil motif-containing protein (Homo sapiens), Q9HD26;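 active = highest replicate inhibition of at least 40%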;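 note: plate controls were DMSO neutral control wells for no effect and unlabeled competitor peptide control wells for full effect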
#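 Material: tagged CAL PDZ domain; buffer or medium: 25 mM sodium phosphate pH 7.4, 150 mM NaCl, TCEP, IgG, Thesit; compound dosing: single point, 20 µM; schedule: 1 h incubation at room temperature before polarization reading; measured by: FP readout, S and P plane fluorescence; read-out basis: percent inhibition from loss of millipolarization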
# CDK5 inh: inhibitors of human CDK5/p35 kinase, primary screen, biochemical, single concentration. Recombinant CDK5/p35, ADP-Glo luminescence, 60 min. inhibition, % at 10 µM. hit rate 0.01% among 330,000. AID 488839, 2010;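 active = highest replicate inhibition of at least 50% and at least 75% of replicates reaching 50%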;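 note: plate controls were DMSO neutral control for no effect and GW8510 at 10 µM for full effect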
# dFosB activator: activators of delta FosB homodimer, primary screen, biochemical, fluorescence polarization, TAMRA-CDK5 oligo, single point; Protein FosB (Mus musculus), P13346; hit rate 0.99% among 340,000; AID 493131, 2011; purified delta FosB; percent of positive-control signal above neutral wells; activation, % at 25 µM;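 active = mean activation above about 17%, with every replicate also reaching it, limit read from the data, passing the limit was not always enough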
# CAL PDZ FP-2: untagged CAL PDZ binding inhibitors, primary screen, biochemical, fluorescence polarization, HTS; purified CAL PDZ, TMR-peptide fluorescence polarization, 1 h; AID 602252, 2012; inhibition, % at 24.9 µM; Golgi-associated PDZ and coiled-coil motif-containing protein (Homo sapiens), Q9HD26; hit rate 0.92% among 300,000;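 active = mean inhibition of at least 30% with at least half of replicates also reaching 30%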;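 note: 0% = DMSO neutral control and 100% = excess unlabeled competitor peptide PRC23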
# Dyrk1A ADPGlo: rat Dyrk1A kinase inhibitors, primary screen, biochemical, single point, plate reader | inhibition, % at 12.5 µM | ADP-Glo luminescence, NFATc1 peptide | Dual specificity tyrosine-phosphorylation-regulated kinase 1A (Rattus norvegicus), Q63470 | hit rate 0.43% among 310,000; in the data active = inhibition above about 50%;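 note: plate controls were vehicle with enzyme for no effect and no enzyme for full effect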
# Dyrk1A artifact: ADP-Glo luciferase interference without Dyrk1A, dose response, artefact control for Dyrk1A inhibitor project, biochemical, luminescence, cherry-pick, set 02 | shares compounds with Dyrk1A ADPGlo | ADP-Glo luciferase artifact assay, no Dyrk1A | AC50, µM (series often up to 12 µM), for inactives: top-dose activity change, negative = inhibition | 1,300 tested, under 10 active | AID 588348, 2011;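 active = fitted half-maximal dose AC50 no more than ten times the top valid tested dose, with luminescence dropping as dose rises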
# Numbers without * were called inactive; / = no result given.
SMILES,UUG fidelity,CAL PDZ FP-1,CDK5 inh,dFosB activator,CAL PDZ FP-2,Dyrk1A ADPGlo,Dyrk1A artifact
N#Cc1c2ccc(O)cc2n2ccccc12,/,2,7,-7,-2,87*,8%
C/C(=C/c1oc2ccc(O)cc2c1[N+](=O)[O-])N(C)C,-5,0,1,-3,-1,52*,7%
Cc1ccc(NC2=C(N3CCCCC3)C(=O)c3ccccc3C2=O)cc1,/,-2,0,-8,-3,52*,9%
C[C@H](CO)N1C[C@H](C)[C@H](CN(C)C(=O)c2ccncc2)Oc2cc(C3=CCCC3)ccc2S1(=O)=O,-14,/,/,/,/,/,/
CCCNC(=O)C[C@@H]1CC[C@H]2[C@@H](COc3ccc(NC(=O)c4ccccc4)cc3C(=O)N2C)O1,7,/,/,/,/,/,/
Cc1cccc(CNc2ncnc3ccc(-c4ccc5c(c4)OCO5)cc23)c1,-11,0,1,7,-1,51*,6%
COc1cccc(NC(=O)c2sc(NC(=O)c3ccncc3)nc2C)c1,/,-1,0,-15,-3,54*,8%
C[C@H](CO)N1C[C@H](C)[C@@H](CN(C)C(=O)Cc2ccccc2)Oc2cc(C#CC3(O)CCCC3)ccc2S1(=O)=O,-7,/,/,/,/,/,/
O=C(O)c1ccc(-n2cc(-c3cc4ccccc4oc3=O)[nH]c2=S)cc1,/,-3,6,-7,-2,67*,9%
Cc1ccnc(NC(=O)c2cccc(S(=O)(=O)N3CCN(c4ccccc4)CC3)c2)c1,-44,-1,3,6,-3,60*,6%
Cc1oc2ncnc(N)c2c1C,-9,0,2,2,-3,50*,8%
c1cnc2ccc(-c3ccc4ncccc4c3)cc2c1,-30,/,3,-16,6,87*,9%
Cc1ccc2ncccc2c1,-9,0,1,5,-6,/,/
O=C(O)CCC(=O)Nc1ccc(N2CCCCCC2)cc1,-2,1,0,-7,0,53*,8%
C[C@@H]1CCCCO[C@H](CN(C)C(=O)Nc2ccccc2)[C@H](C)CN([C@@H](C)CO)C(=O)c2cc(NS(=O)(=O)c3ccc(Cl)cc3)ccc2O1,0,/,/,/,/,/,/
C[C@@H]1CCCCO[C@H](CN(C)S(=O)(=O)c2ccc(F)cc2)[C@H](C)CN([C@H](C)CO)C(=O)c2cc(NC(=O)NC3CCCCC3)ccc2O1,4,/,/,/,/,/,/
O=C(Nc1cccc2nsnc12)c1ccc2c(c1)OCO2,-15,/,0,-1,-3,54*,2%
O=C(Nc1cccc2nsnc12)c1ccc2c(c1)OCCO2,9,-2,0,-13,-2,15,/
COc1cccc(/C=N/n2c(COc3ccccc3)n[nH]c2=S)c1O,-10,-1,5,-3,-6,57*,9%
CC(C)C#Cc1cnc2c(c1)C(=O)N([C@@H](C)CO)C[C@@H](C)[C@@H](CN(C)Cc1ccccc1F)O2,0,/,/,/,/,/,/
CC12CCC(C(=O)Nc3nc4ccc(Br)cc4s3)(OC1=O)C2(C)C (configuration not stated),/,-3,0,-9,-3,82*,7%
O=C(Nc1ccc(Cl)cc1)Nc1ccc2c(c1)N1CCN=C1S2,-9,-1,1,9,-2,68*,10%
Cc1occc1C(=O)/C(C#N)=C/c1ccc(O)c(Br)c1,-20,-1,2,-1,-5,67*,7%
CS(=O)(=O)Nc1ccc2c(c1)[C@H]1C[C@H](CC(=O)N3CCCCC3)O[C@H](CO)[C@H]1O2,-2,/,/,/,/,/,/
COc1ccc(-c2csc3ncnc(Sc4nnnn4C)c23)cc1,-6,-1,1,-3,-2,50*,10%

# 3 entries picked at random from those above, as already listed:
SMILES,UUG fidelity,CAL PDZ FP-1,CDK5 inh,dFosB activator,CAL PDZ FP-2,Dyrk1A ADPGlo,Dyrk1A artifact
O=C(Nc1cccc2nsnc12)c1ccc2c(c1)OCO2,-15,/,0,-1,-3,54*,2%
Cc1occc1C(=O)/C(C#N)=C/c1ccc(O)c(Br)c1,-20,-1,2,-1,-5,67*,7%
Cc1ccnc(NC(=O)c2cccc(S(=O)(=O)N3CCN(c4ccccc4)CC3)c2)c1,-44,-1,3,6,-3,60*,6%

# Part of the list above in another layout.
# Values run as follows: UUG fidelity, CAL PDZ FP-1, CDK5 inh, dFosB activator, CAL PDZ FP-2, Dyrk1A ADPGlo, Dyrk1A artifact
N#Cc1c2ccc(O)cc2n2ccccc12
→ /, 2, 7, -7, -2, 87*, 8%
C/C(=C/c1oc2ccc(O)cc2c1[N+](=O)[O-])N(C)C
→ -5, 0, 1, -3, -1, 52*, 7%

# Next part:
SMILES,UUG fidelity,CAL PDZ FP-1,CDK5 inh,dFosB activator,CAL PDZ FP-2,Dyrk1A ADPGlo,Dyrk1A artifact
C[C@@H]1CN([C@@H](C)CO)C(=O)c2cc(NS(=O)(=O)c3ccc(Cl)cc3)ccc2O[C@@H](C)CCCCO[C@H]1CN(C)C,-2,/,/,/,/,/,/
O=[N+]([O-])c1cc(/C=N/O)ccc1Oc1ccccc1Cl,/,-2,13,1,-6,61*,9%
Clc1c(Cl)c(Cl)c2n[nH]nc2c1Cl,/,-2,1,0,79*,80*,10%
CN1CCc2c(sc3nc(NN)n(-c4ccc(Cl)cc4)c(=O)c23)C1,25,0,3,-15,-1,63*,6%
C[C@@H]1CN([C@@H](C)CO)C(=O)c2cc(NS(=O)(=O)c3ccc(F)cc3)ccc2O[C@@H](C)CCCCO[C@@H]1CN(C)C(=O)Cc1ccccc1,9,/,/,/,/,/,/
CCO/C(=C/c1sc2ccc(OC)cc2[n+]1CCCS(=O)(=O)[O-])CC,/,-1,-5,-10,-1,57*,9%
COc1ccc(-n2c(C)nc3cc(C(=O)NCc4ccco4)ccc32)cc1,-4,-4,-1,-8,-7,51*,11%
COc1ccc(-n2c(C)nc3cc(C(=O)NCc4ccc5c(c4)OCO5)ccc32)cc1,-9,-5,1,-10,-8,57*,9%
CCOc1ccc(-n2c(C)nc3cc(C(=O)NCc4ccc5c(c4)OCO5)ccc32)cc1,-9,-5,-1,-5,-3,-1,/
CCCC#Cc1ccc([C@H]2[C@@H](CO)N3CCCCN(C(=O)NC4CCCC4)C[C@H]23)cc1,25,/,/,/,/,/,/
C[C@@H]1CN([C@H](C)CO)C(=O)Cc2cc(NC(=O)Cc3cn(C)c4ccccc34)ccc2O[C@H]1CN(C)C(=O)Nc1ccc2c(c1)OCO2,18,/,/,/,/,/,/
O=C1C(=O)c2ccccc2C(O)=C1CC=C(Cl)Cl,/,0,-1,0,-1,66*,8%
O=C1C(C=Nc2ccccc2)=C(O)c2ccccc21,-59,0,2,-8,0,40,/
COCCCNc1c2c3c(cccc3[nH]c1=O)C(=O)c1ccccc1-2,-48,8,2,-170,/,65*,15%
COCCCNC1=C(Cl)C(=O)c2ccccc2C1=O,1,0,1,-2,0,/,/
COc1ccc(-c2ccc3c(c2)O[C@H](CN(C)C(C)=O)[C@H](C)CN([C@@H](C)CO)S3(=O)=O)cc1,0,/,/,/,/,/,/
C[C@H](CO)N1C[C@H](C)[C@@H](CN(C)C(=O)Nc2cccc3ccccc23)Oc2c(NS(=O)(=O)c3cccs3)cccc2C1=O,0,/,/,/,/,/,/

# Source: PubChem BioAssay
